Biological target: T1, AT1R (Homo sapiens, UniProt P30556)
T1 construct: signal peptide (N); expressed in transfected cells; host or cells: Hek293
Assay: MeNArC β-arrestin membrane recruitment assay, unmodified AT1R, Hek293
Format: cell-based
Conditions: 0.1 μM Ang II added after antagonist

CCCc1nc(C(C)(C)O)c(C(=O)O)n1Cc1ccc(-c2ccccc2-c2nnn[nH]2)cc1 [olmesartan]
inhibition of agonist-induced response by antagonist added before agonist: prevent the agonist-induced response

Reference: publication PMC8027564, “A novel luminescence-based β-arrestin recruitment assay for unmodified receptors” (The Journal of Biological Chemistry, 2021)
